Experimental data taken from PubChem BioAssay (Tox21).
“And” between values parts separate entries of the source, which are not always exact repeats. Identical values can stand only once. The entries are a selection whose mix differs from that of the whole data set. Results filed as inconclusive are left out. The source made the active and inactive calls. Unless noted, calls follow the shape of the dose curve; as a rule, active = well fitted curve in the direction sought with a large enough effect in the repeat runs; inconclusive = weak or mixed curves; inactive = no such curve, though single readings can be large; an effect the other way counts as inactive or inconclusive.

Sequences of proteins named here, by UniProt entry; tags and fusion partners are left off.
UniProt P04150, whole entry: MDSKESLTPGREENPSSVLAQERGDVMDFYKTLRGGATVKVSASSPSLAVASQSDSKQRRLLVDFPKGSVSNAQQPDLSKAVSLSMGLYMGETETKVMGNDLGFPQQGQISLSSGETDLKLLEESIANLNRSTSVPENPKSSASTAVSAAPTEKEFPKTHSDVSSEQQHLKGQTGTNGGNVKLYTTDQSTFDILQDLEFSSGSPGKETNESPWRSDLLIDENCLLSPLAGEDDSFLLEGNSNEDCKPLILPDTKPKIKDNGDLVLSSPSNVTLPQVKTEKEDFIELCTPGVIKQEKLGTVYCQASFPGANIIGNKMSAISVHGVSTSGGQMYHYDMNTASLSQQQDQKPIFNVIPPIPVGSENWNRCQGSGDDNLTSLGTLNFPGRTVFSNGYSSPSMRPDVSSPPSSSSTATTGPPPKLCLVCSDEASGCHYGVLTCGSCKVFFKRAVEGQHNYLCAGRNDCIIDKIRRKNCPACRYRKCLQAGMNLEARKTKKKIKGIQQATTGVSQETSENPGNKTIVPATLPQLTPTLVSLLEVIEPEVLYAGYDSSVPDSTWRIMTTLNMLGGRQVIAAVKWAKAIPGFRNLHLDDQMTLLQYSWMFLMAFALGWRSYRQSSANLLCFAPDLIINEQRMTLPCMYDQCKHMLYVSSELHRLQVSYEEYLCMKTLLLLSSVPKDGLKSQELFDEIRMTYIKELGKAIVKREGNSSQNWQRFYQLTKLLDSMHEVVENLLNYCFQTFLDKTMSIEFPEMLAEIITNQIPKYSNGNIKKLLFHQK

Columns and labels:
[1] = qHTS assay for small molecule agonists of the p53 signaling pathway (AID 651631; calls by dose curve; also: nearly all actives have a fitted effect of over 15% in size); conditions: HCT-116 p53RE-bla reporter, beta-lactamase FRET ratio, 16 h
In short: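 Testing took place in human colorectal HCT-116 cells with stable p53RE-driven beta-lactamase. After 16 h of compound exposure at 37 °C, a FRET substrate was added and fluorescence recorded 2 h later.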

[2] = qHTS assay for small molecules that induce genotoxicity in human embryonic kidney cells expressing luciferase-tagged ATAD5 (AID 651632); conditions: HEK293T ATAD5-luciferase induction, 16 h; series mostly up to 83.3 µM; also: nearly all actives have a fitted effect of over 15% in size
In short: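 HEK293T cells carrying a luciferase reporter tagged to ATAD5 were exposed to compound or DMSO vehicle for 16 hr at 37C, 5% CO2. Amplite was added, and after 30 min at room temperature luciferase activity was read as a marker of ATAD5 induction.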

[3] = qHTS assay for small molecule agonists of the p53 signaling pathway - cell viability (AID 651633; calls by dose curve; also: nearly all actives have a fitted effect of over 30% in size); conditions: p53RE-bla HCT-116 viability, ATP luminescence, 16 h
In short: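 Viability counter-read: CellTiter-Glo luminescence (30 min, room temperature) in the same p53RE-bla plates. These plates had been exposed to compounds for 16 h at 37 C.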

[4] = qHTS assay for small molecules that induce genotoxicity in human embryonic kidney cells expressing luciferase-tagged ATAD5 - cell viability (AID 651634; calls by dose curve; also: nearly all actives have a fitted effect of over 25% in size); conditions: HEK293T ATAD5-luc cells viability, CellTiter-Fluor, 15.5 h
In short: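 HEK293T cells expressing luciferase-tagged ATAD5 were exposed to compound or DMSO for 15.5 hr at 37C, 5% CO2. Viability was then read as live-cell protease activity by CellTiter-Fluor fluorescence after 30 min at 37C.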

[5] = qHTS assay for small molecule disruptors of the mitochondrial membrane potential - cell viability (AID 720634; calls by dose curve;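 also: human HepG2 liver cancer cells; nearly all actives have a fitted effect of over 20% in size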); conditions: HepG2 viability, ATP luminescence (CellTiter-Glo), 1 h
In short: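 HepG2 cells seeded overnight at 37 C, then exposed to compound or DMSO for 1 hr at 37 C, 5% CO2. m-MPI dye added, then CellTiter-Glo for 30 min at room temperature; viability read as ATP luminescence.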

[6] = qHTS assay to test for compound auto fluorescence at 590 nm (red) in HepG2 cells (AID 720674); conditions: HepG2 autofluorescence, red 540/590 nm, 1 h
In short: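 We screened compounds on adherent HepG2 cells, incubating them for an hour at 37 C in 5% CO2 before reading emission at 590 nm under 540 nm excitation; values reflect equivalence to Rose Bengal sodium fluorescence.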

[7] = qHTS assay to test for compound auto fluorescence at 535 nm (green) in HepG2 cells (AID 720675); conditions: green autofluorescence 485/535 nm, 1 h
[8] = qHTS assay to test for compound auto fluorescence at 460 nm (blue) in HEK293 cells (AID 720678); conditions: blue autofluorescence 405/460 nm
In short: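 Cells were seeded and left to adhere for 4-5 hr at 37C. Compounds were then pin-transferred. After an overnight incubation at 37C under 5% CO2, intrinsic fluorescence at 405/460 nm was measured and referenced to triamterene.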

[9] = qHTS assay to test for compound auto fluorescence at 590 nm (red) in HEK293 cells (AID 720679); conditions: red autofluorescence 540/590 nm
In short: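 Each well held 2,000 HEK293 cells in medium containing 10% dialyzed FBS. Following 4-5 hr attachment at 37C, 23 nL test compound or DMSO was added; plates sat overnight, and red fluorescence (540/590nm) was recorded.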

[10] = qHTS assay to test for compound auto fluorescence at 535 nm (green) in HEK293 cells (AID 720680); conditions: green autofluorescence 485/535 nm
[11] = qHTS assay to test for compound auto fluorescence at 460 nm (blue) in HEK293 cell free culture (AID 720681); conditions: cell-free medium, autofluorescence 405/460 nm (blue)
In short: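 Blue fluorescence (Ex 405/Em 460 nm, triamterene-equivalent) was read immediately after pin transfer of compound or DMSO into medium (DMEM, 10% FBS) without cells.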

[12] = qHTS assay to test for compound auto fluorescence at 535 nm (green) in HEK293 cell free culture (AID 720682); conditions: cell-free medium, green autofluorescence 485/535 nm, hits give high values
In short: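 DMEM + 10% FBS, cell-free; cpd or DMSO pinned in; Ex485/Em535 read; output as fluorescein-equivalent signal.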

[13] = qHTS assay to test for compound auto fluorescence at 590 nm (red) in HEK293 cell free culture (AID 720683); conditions: cell-free medium autofluorescence, Ex540/Em590 red
In short: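 Red-channel autofluorescence of compounds in culture medium (DMEM, 10% FBS), no cells, measured at 540/590 nm. Rose Bengal sodium is the reference fluorophore for equivalence.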

[14] = qHTS assay to test for compound auto fluorescence at 590 nm (red) in HepG2 cell free culture (AID 720684); conditions: cell-free medium autofluorescence, red 540/590 nm
In short: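 Plate contents were MEM with 10% FBS plus test compound or DMSO, no cells. Fluorescence was recorded with 540 nm excitation and 590 nm emission.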

[15] = qHTS assay to test for compound auto fluorescence at 460 nm (blue) in HepG2 cell free culture (AID 720685); conditions: Cell-free culture medium, blue autofluorescence 405/460 nm
In short: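 Compound (23 nL) or DMSO pinned into cell-free MEM with 10% FBS; blue fluorescence read at 405/460 nm excitation/emission, expressed as auto-fluorescence equivalency to triamterene.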

[16] = qHTS assay to test for compound auto fluorescence at 535 nm (green) in HepG2 cell free culture (AID 720686); conditions: Cell-free medium, green autofluorescence 485/535 nm
[17] = qHTS assay to test for compound auto fluorescence at 460 nm (blue) in HepG2 cells (AID 720687); conditions: autofluorescence 405/460 nm, 1 h
In short: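 Blue-channel autofluorescence (Ex/Em 405/460 nm, triamterene-equivalent) was measured after 1 hr compound exposure at 37 C, 5% CO2. Cells were HepG2, plated overnight at 37 C in MEM plus 10% FBS.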

[18] = biological target: Glucocorticoid receptor (Homo sapiens) (UniProt P04150); assay: qHTS assay to identify small molecule agonists of the glucocorticoid receptor (GR) signaling pathway (AID 720691; active = well fitted activation curve with a large enough effect in the signal ratio in the repeat runs, not every such curve was filed as active; the % refers to the signal ratio); conditions: GR-bla HeLa, beta-lactamase reporter ratio, 18 h
[19] = qHTS assay for identifying genotoxic compounds that show differential cytotoxicity against isogenic chicken DT40 cell lines with known DNA damage response pathways - wild type cell line (AID 743012); conditions: DT40 wild type chicken cells viability, CellTiter-Glo, 40 h; also: nearly all actives have a fitted effect of over 60% in size
In short: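 Parental DNA repair-proficient DT40 cells, 300 per well, were pre-incubated ~0.5 h at 37 C/5% CO2, pin-dosed with compounds in DMSO, then incubated 40 h. Viability was read as CellTiter-Glo luminescence after 30 min at room temperature.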

[20] = biological target: Glucocorticoid receptor (Homo sapiens) (UniProt P04150); assay: qHTS assay to identify small molecule antagonists of the glucocorticoid receptor (GR) signaling pathway (AID 720692; active = well fitted inhibition curve with a large enough effect in the signal ratio in the repeat runs, not every such curve was filed as active; the % refers to the signal ratio); conditions: GR-bla HeLa, beta-lactamase FRET ratio, dexamethasone-stimulated, 18 h; at 58.5 µM (top of the series)
% is scaled to controls: 0 for no effect and ±100 for the full control effect.

N=C(N)N[N+](=O)[O-]
inactive: activation ([1]; at 95.1 µM (top of the series)) 1.98% | Potency [2] | activity change, negative = cytotoxicity ([3]; at 95.3 µM (top of the series)) 15.3% | activity, negative = cytotoxicity ([4]; at 95.3 µM (top of the series)) 9.91% | activity change, negative = cytotoxicity ([5]; at 95.3 µM (top of the series)) 6.08% | fluorescence, relative to Rose Bengal ([6]; at 95.7 µM (top of the series)) 0.0139% | fluorescence, % of fluorescein control ([7]; at 95.7 µM (top of the series)) -0.0045% | fluorescence, % of triamterene ([8]; at 95.7 µM (top of the series)) -0.12% | fluorescence, % of fluorescent control ([9]; at 95.7 µM (top of the series)) -0.155% | fluorescence, % of fluorescein ([10]; at 95.7 µM (top of the series)) -0.0112% | fluorescence, % of fluorescent control ([11]; at 95.7 µM (top of the series)) -0.213% | activity change ([12]; at 95.7 µM (top of the series)) -0.0339% | fluorescence, % of fluorescent control ([13]; at 95.7 µM (top of the series)) 0.143% | fluorescence, % of Rose Bengal ([14]; at 95.7 µM (top of the series)) 0.0008% | fluorescence, % of fluorescent control ([15]; at 95.7 µM (top of the series)) -0.0927% | fluorescence, % of fluorescein control ([16]; at 95.7 µM (top of the series)) -0.0748% | fluorescence, % of fluorescent control ([17]; at 95.7 µM (top of the series)) -0.0486% | activation ([18]; at 79.2 µM (top of the series)) -1.1% | activity change, negative = cytotoxicity ([19]; at 95 µM (top of the series)) 1.16%

CP(=O)(O)OCCC[Si](O)(O)O
inactive: Potency [2] | activity change, negative = cytotoxicity ([3]; at 83.3 µM (top of the series)) 10% | activity, negative = cytotoxicity ([4]; at 83.3 µM (top of the series)) 12.6% | activity change, negative = cytotoxicity ([5]; at 83.2 µM (top of the series)) 7.12% | fluorescence, relative to Rose Bengal ([6]; at 91.3 µM (top of the series)) 0.254% | fluorescence, % of fluorescein control ([7]; at 91.3 µM (top of the series)) 0.0748% | fluorescence, % of triamterene ([8]; at 91.3 µM (top of the series)) 0.0795% | fluorescence, % of fluorescent control ([9]; at 91.3 µM (top of the series)) -0.137% | fluorescence, % of fluorescein ([10]; at 91.3 µM (top of the series)) 0.0049% | fluorescence, % of fluorescent control ([11]; at 91.3 µM (top of the series)) 0.101% | activity change ([12]; at 91.3 µM (top of the series)) 0.0223% | fluorescence, % of fluorescent control ([13]; at 91.3 µM (top of the series)) 0.341% | fluorescence, % of Rose Bengal ([14]; at 91.3 µM (top of the series)) 0.121% | fluorescence, % of fluorescent control ([15]; at 91.3 µM (top of the series)) 0.0396% | fluorescence, % of fluorescein control ([16]; at 91.3 µM (top of the series)) -0.0128% | fluorescence, % of fluorescent control ([17]; at 91.3 µM (top of the series)) 0.0651% | activation ([18]; at 62.4 µM (top of the series)) -2.87% | activity change, negative = inhibition [20] -1.3% | activity change, negative = cytotoxicity ([19]; at 68.4 µM (top of the series)) 25.5%

O=[N+]([O-])OCC(CO[N+](=O)[O-])(CO[N+](=O)[O-])CO[N+](=O)[O-]
inactive: activation ([1]; at 73.3 µM (top of the series)) -1.08% | Potency [2] | activity change, negative = cytotoxicity ([3]; at 83.3 µM (top of the series)) -22.6% and -13.9% | activity, negative = cytotoxicity ([4]; at 83.3 µM (top of the series)) -8.11% and -4.09% | activity change, negative = cytotoxicity ([5]; at 83.2 µM (top of the series)) 11.5% and -3.68% | fluorescence, relative to Rose Bengal ([6]; at 46 µM (top of the series)) 0.622% | fluorescence, relative to Rose Bengal ([6]; at 91.3 µM (top of the series)) -0.234% | fluorescence, % of fluorescein control ([7]; at 46 µM (top of the series)) 0.0239% | fluorescence, % of fluorescein control ([7]; at 91.3 µM (top of the series)) 0.0538% | fluorescence, % of triamterene ([8]; at 46 µM (top of the series)) -0.258% | fluorescence, % of triamterene ([8]; at 91.3 µM (top of the series)) -0.217% | fluorescence, % of fluorescent control ([9]; at 46 µM (top of the series)) -0.789% | fluorescence, % of fluorescent control ([9]; at 91.3 µM (top of the series)) -0.321% | fluorescence, % of fluorescein ([10]; at 46 µM (top of the series)) 0.014% | fluorescence, % of fluorescein ([10]; at 91.3 µM (top of the series)) -0.0189% | fluorescence, % of fluorescent control ([11]; at 46 µM (top of the series)) 0.0372% | fluorescence, % of fluorescent control ([11]; at 91.3 µM (top of the series)) -0.0865% | activity change ([12]; at 46 µM (top of the series)) 0.009% | activity change ([12]; at 91.3 µM (top of the series)) 0.0811% | fluorescence, % of fluorescent control ([13]; at 46 µM (top of the series)) -0.0563% | fluorescence, % of fluorescent control ([13]; at 91.3 µM (top of the series)) -0.393% | fluorescence, % of Rose Bengal ([14]; at 46 µM (top of the series)) -0.425% | fluorescence, % of Rose Bengal ([14]; at 91.3 µM (top of the series)) -0.0457% | fluorescence, % of fluorescent control ([15]; at 46 µM (top of the series)) -0.0306% | fluorescence, % of fluorescent control ([15]; at 91.3 µM (top of the series)) -0.0398% | fluorescence, % of fluorescein control ([16]; at 46 µM (top of the series)) -0.0215% | fluorescence, % of fluorescein control ([16]; at 91.3 µM (top of the series)) 0.0172% | fluorescence, % of fluorescent control ([17]; at 46 µM (top of the series)) 0.0932% | fluorescence, % of fluorescent control ([17]; at 91.3 µM (top of the series)) 0.0355% | activation ([18]; at 62.4 µM (top of the series)) 0.271% and 0.409% | activity change, negative = inhibition [20] -5.85% | activity change, negative = cytotoxicity ([19]; at 68.4 µM (top of the series)) 4.41%
